Values of other authors as cited in PMC5962642, “Dynamic imaging of adaptive stress response pathway activation for prediction of drug induced liver injury” (Archives of Toxicology, 2018).

Conditions: ref Chen et al. [2016], cited from earlier work

Q: With Neomycin as the substance, how does the “DILI con. (DILI-concern labeling)” value (FDA DILI labeling) read?
A: Its value is “No-DC”.

Q: What about the “Hepa. (hepatotoxicity class)” value (FDA labeling in eight classes of hepatotoxicity) of the same substance?
A: Its value is 1.
